Assay results as given in PubChem BioAssay AID652031 (The Scripps Research Institute Molecular Screening Center, 2013).
Only a part is listed here, and it is no random draw. Activity calls are given as the source filed them. Cut-off read from the data, not from the text of the source: active = inhibition above about 50%; inactive = the rest.

Sequences of proteins named here, by UniProt entry; tags and fusion partners are left off.
UniProt P41145, whole entry: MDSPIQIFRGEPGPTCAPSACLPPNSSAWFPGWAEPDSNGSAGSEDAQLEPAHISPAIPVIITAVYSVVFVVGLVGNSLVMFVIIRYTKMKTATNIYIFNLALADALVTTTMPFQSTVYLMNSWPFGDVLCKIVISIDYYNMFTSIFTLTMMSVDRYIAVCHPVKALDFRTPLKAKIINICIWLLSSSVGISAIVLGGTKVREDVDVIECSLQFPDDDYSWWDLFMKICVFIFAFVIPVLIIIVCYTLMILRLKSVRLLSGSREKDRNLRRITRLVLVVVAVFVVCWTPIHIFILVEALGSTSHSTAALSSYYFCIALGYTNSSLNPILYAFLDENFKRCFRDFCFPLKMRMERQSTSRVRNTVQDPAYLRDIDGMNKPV

target: Kappa-type opioid receptor (Homo sapiens) (UniProt P41145); experiment: antagonists of human kappa opioid receptor OPRK1, Maybridge library (AID 652031); settings: OPRK1 cells, antagonist mode, fluorescence readout; at 9 µM; active compounds read high

SMILES | inhibition
Cc1ccccc1NC1CC(C)(C)NC(C)(C)C1 | inactive: -0.2%
